What was measured:
[1] = target: HLA-DR4 molecules on HLA-DR4+ human lymphoma cells (H9 cells) (human); test: flow cytometry on HLA-DR4+ H9 cells, anti-HA mAb + FITC secondary; peptide at 50 nmole; no peptide 1.83%
[2] = target: HLA-DR4 molecules on HLA-DR4+ human lymphoma cells (H9 cells) (human); test: flow cytometry on HLA-DR4+ H9 cells, anti-HA mAb + FITC secondary; peptide at 10 nmole; no peptide 1.83%
[3] = target: HLA-DR4 molecules on HLA-DR4+ human lymphoma cells (H9 cells) (human); test: flow cytometry on HLA-DR4+ H9 cells, anti-HA mAb + FITC secondary; peptide at 1 nmole; no peptide 1.83%
[4] = target: HLA-DR4 molecules on HLA-DR4+ human lymphoma cells (H9 cells) (human); test: flow cytometry on HLA-DR4+ H9 cells, anti-HA mAb + FITC secondary; peptide at 25 nmole; no peptide 1.83%
[5] = target: HLA-DR4 molecules on HLA-DR4+ human lymphoma cells (H9 cells) (human); test: flow cytometry on HLA-DR4+ H9 cells, anti-HA mAb + FITC secondary; peptide at 100 nmole; no peptide 1.83%

HPV7 (HPV1-HA tagged peptide: HPV16 E7 (8-22) epitope-only peptide extended at the C-terminus with a two-glycine spacer and an HA tag)
percentage of positive gated cells [1]: 25.6%
percentage of positive gated cells [2]: 7.42%
percentage of positive gated cells [3]: 3.88%
percentage of positive gated cells [4]: 12.2%
percentage of positive gated cells [5]: 39.5%

Reference: patent publication US20100080817A1
